Amino acid sequences for entries named in this document (tags omitted). A change or cut given only in a name is not applied to a line headed by its entry.
UniProt Q00788, whole entry: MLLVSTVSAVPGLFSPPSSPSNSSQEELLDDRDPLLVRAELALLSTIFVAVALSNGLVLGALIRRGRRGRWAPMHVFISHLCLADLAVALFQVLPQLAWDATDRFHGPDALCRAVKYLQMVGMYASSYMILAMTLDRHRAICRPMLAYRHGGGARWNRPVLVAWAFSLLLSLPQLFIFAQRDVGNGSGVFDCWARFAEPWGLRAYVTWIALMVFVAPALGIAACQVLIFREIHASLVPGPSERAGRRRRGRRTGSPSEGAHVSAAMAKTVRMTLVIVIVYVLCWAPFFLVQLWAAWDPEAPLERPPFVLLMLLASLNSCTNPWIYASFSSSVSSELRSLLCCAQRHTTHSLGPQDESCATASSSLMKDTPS

According to PMC7545998, “A snake toxin as a theranostic agent for the type 2 vasopressin receptor” (Theranostics, 2020):

Experiments:
Sprague-Dawley rats [1] = experiment: Diuresis and urine osmolality with daily i.p. injection of 3 nmol/kg for 4 days; format: in vivo, rat; conditions: daily i.p. 3 nmol/kg for 4 days
Sprague-Dawley rats [2] = experiment: Observation of toxic effects and therapeutic index in rats; format: in vivo, rat
rat V2R (rV2R) = target: T1, rat V2R (rV2R) (Rattus norvegicus, UniProt Q00788); experiment: [^3H]AVP competition binding, COS cells transiently expressing rV2R; conditions: 1 nM [^3H]AVP, COS cell membranes, mean ± SD
T1 construct: expressed in transfected cells; host or cells: COS cells, transient; membranes prepared 48 h after transfection

human V2R = target: T2, human V2R (Homo sapiens, UniProt P30518); experiment: cAMP production in CHO cells stably expressing hV2R (inverse agonism, cAMP Dynamic 2 kit); format: cell-based; conditions: CHO stably expressing hV2R, 20,000 cells/well, 30 min at 37 °C, n=3; read-out: IC50, concentration-dependent decrease in cAMP production
T2 construct: expressed in transfected cells

hV2R = target: T3, hV2R (Homo sapiens, UniProt P30518); experiment: [^3H]AVP competition binding, CHO cell line stably expressing hV2R; conditions: 1 nM [^3H]AVP, mean ± SD, at least three independent experiments in duplicate
T3 construct: expressed in transfected cells

[3] = Plasma pharmacokinetics of MQ1 in rats (UPLC-MS/MS); format: in vivo, rat
[4] = tested on: rat model of hyponatremia; experiment: Rat model of dDAVP-induced hyponatremia; format: in vivo; conditions: for body weight change referring to D0: MQ1-treated rats
[5] = 356 nmol/kg i.p., n = 3, geometric mean
[6] = 356 nmol/kg i.p., non-compartmental analysis
[7] = 356 nmol/kg i.p., plasma, n = 3, harmonic mean

mambaquaretin [MQ1]
fold decrease of osmolality vs control rats (Sprague-Dawley rats [1]): 4.3 fold | fold increase of diuresis vs control rats (Sprague-Dawley rats [1]): 4.2 fold | observable toxic effects (prostration, spiky coat, appetite or weight loss) (Sprague-Dawley rats [2]; from the lowest to the highest tested dose): never detected any observable toxic effects | therapeutic index (Sprague-Dawley rats [2]; rats): about 100 | pKi for rV2R (rat V2R (rV2R)): 8.14 ± 0.20 | IC50 (human V2R): 167 ± 12 nM | pKi for hV2R (hV2R): 8.33 ± 0.20 | Cmax ([3]; 356 nmol/kg (2.27 mg/kg) i.p., n = 3, geometric mean): 2100 ng/mL | MQ1 plasma concentrations ([3]; 356 nmol/kg i.p., 1 h): 1.709 µg/mL | MQ1 plasma concentrations ([3]; 356 nmol/kg i.p., 2 h): 0.486 µg/mL | MQ1 plasma concentrations ([3]; 356 nmol/kg i.p., 3 h): 0.259 µg/mL | MQ1 plasma concentrations ([3]; 356 nmol/kg i.p., 4 h): 1.239 µg/mL | MQ1 plasma concentrations ([3]; 356 nmol/kg i.p., 5 h): 0.257 µg/mL | MQ1 plasma concentrations ([3]; 356 nmol/kg i.p., 6 h): 0.378 µg/mL | MQ1 plasma concentrations ([3]; 356 nmol/kg i.p., 8 h): 0.150 µg/mL | MQ1 plasma concentrations ([3]; 356 nmol/kg i.p., 10 h): 0.299 µg/mL | MQ1 plasma concentrations ([3]; 356 nmol/kg i.p., 12 h): 0.219 µg/mL | MQ1 plasma concentrations ([3]; 356 nmol/kg i.p., 16 h): 0.154 µg/mL | MQ1 plasma concentrations ([3]; 356 nmol/kg i.p., 24 h): 0.096 µg/mL | MQ1 plasma concentrations ([3]; 356 nmol/kg i.p., 48 h, close to limit of quantification): 0.056 µg/mL | MQ1 plasma concentrations ([3]; 356 nmol/kg i.p., 72 h, close to limit of quantification): 0.092 µg/mL | MQ1 plasma concentrations ([3]; 356 nmol/kg i.p., 96 h, close to limit of quantification): 0.074 µg/mL | AUClast [3, 5]: 11600 ng·h/mL | Clearance/F [3, 5]: 2.12 mL/min/kg | Kel [3, 5]: 0.0142 h⁻¹ | Tmax ([3]; 356 nmol/kg i.p., n = 3, median (min-max)): 4 (1-6) h | k value, distribution phase of mean PK profile [3, 6]: 0.2557 | k value, elimination phase of mean PK profile [3, 6]: 0.0131 | T1/2α [3, 7]: 3.8 h | T1/2β [3, 7]: 31 h | body weight change referring to D0 ([4]; D3): -4.57 ± 0.63% | body weight change referring to D0 ([4]; D4): -6.03 ± 0.95% | food intake ([4]; during the experiments): never noted any significant change in food intake
